Target: rat m1 receptor (Rm1) (Rattus norvegicus, UniProt P08482)
Settings: Rm1 in CHO cell membranes; direct binding of 3H-NMS

Chains of the proteins cited; added tags and fusions are not shown. Lines headed by an entry give the natural chain unless they say otherwise; changes in a name come on top.
UniProt P08482: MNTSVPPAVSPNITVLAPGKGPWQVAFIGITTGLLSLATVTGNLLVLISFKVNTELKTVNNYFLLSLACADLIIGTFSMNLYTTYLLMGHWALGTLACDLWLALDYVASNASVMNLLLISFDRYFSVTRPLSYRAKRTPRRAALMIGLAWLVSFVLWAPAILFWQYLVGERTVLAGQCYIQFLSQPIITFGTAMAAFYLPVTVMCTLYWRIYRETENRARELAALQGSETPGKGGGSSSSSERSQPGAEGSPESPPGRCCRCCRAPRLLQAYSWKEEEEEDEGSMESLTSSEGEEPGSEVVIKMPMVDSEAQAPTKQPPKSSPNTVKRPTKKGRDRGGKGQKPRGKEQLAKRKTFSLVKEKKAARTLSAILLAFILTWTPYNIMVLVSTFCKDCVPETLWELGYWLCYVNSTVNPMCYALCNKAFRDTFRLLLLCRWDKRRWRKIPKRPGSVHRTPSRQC

C[N+]1(C)C2CC(OC(=O)C(CO)c3ccccc3)CC1C1OC12 (single isomer, unassigned) [^3 H-NMS, N-methylscopolamine]
Bmax: 180 ± 43 fmol/mg protein
